Data from patent publication US7199127B2 (dated 2007).

Amino acid sequences for entries named in this document (tags omitted).
UniProt P30542, whole entry: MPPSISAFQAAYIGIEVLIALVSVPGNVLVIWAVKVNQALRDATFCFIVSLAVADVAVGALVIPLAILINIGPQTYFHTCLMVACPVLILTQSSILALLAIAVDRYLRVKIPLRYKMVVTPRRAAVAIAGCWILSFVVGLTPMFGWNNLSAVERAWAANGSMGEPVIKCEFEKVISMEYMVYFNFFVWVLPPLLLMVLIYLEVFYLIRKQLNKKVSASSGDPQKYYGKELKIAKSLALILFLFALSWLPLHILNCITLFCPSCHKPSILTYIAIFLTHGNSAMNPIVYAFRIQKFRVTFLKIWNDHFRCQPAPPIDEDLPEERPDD
UniProt P25099, whole entry: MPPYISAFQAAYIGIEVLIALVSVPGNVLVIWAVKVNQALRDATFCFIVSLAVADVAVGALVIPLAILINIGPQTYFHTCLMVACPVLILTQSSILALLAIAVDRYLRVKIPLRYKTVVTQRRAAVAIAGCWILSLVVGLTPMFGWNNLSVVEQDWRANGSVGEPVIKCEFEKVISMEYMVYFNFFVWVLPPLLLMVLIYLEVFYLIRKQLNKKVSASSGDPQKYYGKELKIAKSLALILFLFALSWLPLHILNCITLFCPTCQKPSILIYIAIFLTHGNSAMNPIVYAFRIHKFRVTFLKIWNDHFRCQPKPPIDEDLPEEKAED
UniProt P30543, whole entry: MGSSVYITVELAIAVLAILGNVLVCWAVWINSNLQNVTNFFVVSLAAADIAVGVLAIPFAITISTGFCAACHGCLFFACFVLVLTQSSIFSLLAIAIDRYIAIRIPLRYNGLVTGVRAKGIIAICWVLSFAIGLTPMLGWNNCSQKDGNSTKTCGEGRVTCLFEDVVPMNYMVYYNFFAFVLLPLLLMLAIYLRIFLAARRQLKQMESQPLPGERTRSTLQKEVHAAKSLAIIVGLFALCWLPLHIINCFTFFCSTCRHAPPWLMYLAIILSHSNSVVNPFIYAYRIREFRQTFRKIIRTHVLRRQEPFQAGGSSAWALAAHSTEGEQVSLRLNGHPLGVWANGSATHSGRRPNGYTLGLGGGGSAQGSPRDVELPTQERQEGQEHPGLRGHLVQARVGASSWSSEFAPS

Legend:
hA2a adenosine receptor = hA2a adenosine receptor (Homo sapiens, UniProt P29274); assay: Binding of [3H]CGS21680 to A2a (human); settings: 10 μM
hA1 adenosine receptor = hA1 adenosine receptor (Homo sapiens, UniProt P30542); assay: Binding of [3H]PIA to A1 (human); settings: read-out: Ki hA1, Cheng-Prusoff
rA1 adenosine receptor = rA1 adenosine receptor (Rattus norvegicus, UniProt P25099); assay: Binding of [3H]PIA to A1 (rat)
rA2a adenosine receptor = rA2a adenosine receptor (Rattus norvegicus, UniProt P30543); assay: Binding of [3H]CGS21680 to A2a (rat)

Row | % Displacement hA2a (hA2a adenosine receptor) [%] | Ki (hA1 adenosine receptor) [nM] | Ki (rA1 adenosine receptor) [nM] | Ki (rA2a adenosine receptor) [nM] | SMILES
1 | 50 | 110 | – | – | CNC(=O)[C@]1(n2cnc3c(NCc4cccc(I)c4)nc(Cl)nc32)SC[C@H](O)[C@@H]1O [Compound 12, (2R,3S,4R)-2-[2-chloro-6-(3-iodobenzylamino)purin-9-yl)-3,4-dihydroxytetrahydrothiophene-2-carboxylic acid methyl amide]
2 | – | – | 820 | 470 | CNC(=O)[C@H]1O[C@@H](n2cnc3c(NCc4cccc(I)c4)nc(Cl)nc32)C(O)[C@H]1O (stereo partly shown) [CL-IB-MECA, N^6-(3-iodobenzyl)-2-chloro-5′-(N-methylcarbamoyl)adenosine, reference compound]
